Literature values, collected in patent publication US20250281633A1, “HER2 TARGETING FC ANTIGEN BINDING FRAGMENT-DRUG CONJUGATES” (MERCK PATENT GMBH, priority 2021, published 2025).

Details: mouse; cited from earlier work

Substance: Trastuzumab Fab: literature Fab fragment of Trastuzumab lacking the Fc portion
- terminal t1/2: 4.4 h
